Biological target: Human NK3 receptor (Homo sapiens, UniProt P29371)
Experiment: NK3 receptor binding assay (antagonist radioligand, scintillation counting)
Set-up: expressed in transfected cells; host or cells: CHO cells (membrane preparations)
Conditions: affinity of the radioligand for the receptor; CHO cells
Experimental: The radiolabeld NK3 receptor antagonist Osanetant ([^3H]SR 142801) was used at concentrations of 0,4 nM in the binding assay as an antagonistic ligand, while the NK3 receptor antagonist SB 222200 at concentrations of 10µM was used to determine nonspecific binding, which is outlined in the table below, outlining the particulars of the assays.
A scatchard plot is used todetermine the KD.

Protein sequences, listed by entry. Tags and fused reporters are not part of them.
UniProt P29371, whole entry: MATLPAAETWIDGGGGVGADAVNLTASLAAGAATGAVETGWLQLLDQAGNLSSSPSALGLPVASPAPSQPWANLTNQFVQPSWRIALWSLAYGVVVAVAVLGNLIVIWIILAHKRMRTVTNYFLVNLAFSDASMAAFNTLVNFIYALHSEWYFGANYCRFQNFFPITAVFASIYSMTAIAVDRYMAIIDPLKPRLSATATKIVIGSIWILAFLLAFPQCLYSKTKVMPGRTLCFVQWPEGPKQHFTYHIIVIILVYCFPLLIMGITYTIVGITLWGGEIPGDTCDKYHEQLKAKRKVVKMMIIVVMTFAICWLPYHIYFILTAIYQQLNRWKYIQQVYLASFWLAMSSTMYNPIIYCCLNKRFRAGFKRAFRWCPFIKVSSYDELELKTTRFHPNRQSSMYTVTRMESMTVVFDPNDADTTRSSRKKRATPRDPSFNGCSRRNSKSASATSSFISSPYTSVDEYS

- Kd: 0.47 nM
SMILES: CC(=O)N(C)C1(c2ccccc2)CCN(CCC[C@]2(c3ccc(Cl)c(Cl)c3)CCCN(C(=O)c3ccccc3)C2)CC1 [[^3H]SR 142801, reference compound]
